Laboratory results: EP4847524A2, “FATTY ACID CONJUGATED CYCLIC PEPTIDES” (dated 2026)

Protein sequences, listed by entry. Tags and fused reporters are not part of them. Chains listed by the source or under a name are the forms on record and can include a tag or linker. Residues count along the entry.
UniProt A0A8I3PB95, 31-437 limits assumed: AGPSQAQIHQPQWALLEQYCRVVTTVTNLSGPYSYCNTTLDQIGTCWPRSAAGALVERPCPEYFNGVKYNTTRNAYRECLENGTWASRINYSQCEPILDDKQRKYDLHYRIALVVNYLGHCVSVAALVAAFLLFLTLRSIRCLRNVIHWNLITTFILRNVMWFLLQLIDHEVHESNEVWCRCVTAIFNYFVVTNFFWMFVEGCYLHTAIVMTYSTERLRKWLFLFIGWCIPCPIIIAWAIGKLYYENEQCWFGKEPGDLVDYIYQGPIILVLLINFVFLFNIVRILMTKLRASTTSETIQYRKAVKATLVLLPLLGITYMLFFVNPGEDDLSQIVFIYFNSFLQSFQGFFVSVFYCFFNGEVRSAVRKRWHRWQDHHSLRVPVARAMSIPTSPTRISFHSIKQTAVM
UniProt P47866, 1-431 with tags or gaps: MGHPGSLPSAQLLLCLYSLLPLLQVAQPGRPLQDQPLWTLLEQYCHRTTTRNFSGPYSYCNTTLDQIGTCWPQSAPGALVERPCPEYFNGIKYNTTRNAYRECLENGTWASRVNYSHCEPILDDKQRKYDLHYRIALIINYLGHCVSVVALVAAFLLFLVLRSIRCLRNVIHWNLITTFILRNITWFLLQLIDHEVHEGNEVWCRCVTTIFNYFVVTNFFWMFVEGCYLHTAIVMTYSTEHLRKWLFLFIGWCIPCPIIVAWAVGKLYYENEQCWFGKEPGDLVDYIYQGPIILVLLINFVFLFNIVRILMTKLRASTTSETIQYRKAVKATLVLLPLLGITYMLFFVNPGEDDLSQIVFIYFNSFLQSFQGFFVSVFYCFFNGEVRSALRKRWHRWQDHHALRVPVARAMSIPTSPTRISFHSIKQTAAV
UniProt A0A2K5WS31, 30-431 limits assumed: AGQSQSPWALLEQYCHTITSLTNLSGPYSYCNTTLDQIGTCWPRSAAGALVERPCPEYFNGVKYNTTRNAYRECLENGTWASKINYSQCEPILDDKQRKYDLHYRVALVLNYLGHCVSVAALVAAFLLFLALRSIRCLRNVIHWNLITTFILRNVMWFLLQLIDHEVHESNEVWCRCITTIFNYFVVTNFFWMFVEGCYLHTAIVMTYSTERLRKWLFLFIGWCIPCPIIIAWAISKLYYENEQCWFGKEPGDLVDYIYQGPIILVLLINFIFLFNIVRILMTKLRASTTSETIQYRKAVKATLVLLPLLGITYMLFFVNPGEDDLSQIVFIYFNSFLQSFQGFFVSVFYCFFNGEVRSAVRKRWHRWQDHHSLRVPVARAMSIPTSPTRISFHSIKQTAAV
UniProt Q13324, whole entry: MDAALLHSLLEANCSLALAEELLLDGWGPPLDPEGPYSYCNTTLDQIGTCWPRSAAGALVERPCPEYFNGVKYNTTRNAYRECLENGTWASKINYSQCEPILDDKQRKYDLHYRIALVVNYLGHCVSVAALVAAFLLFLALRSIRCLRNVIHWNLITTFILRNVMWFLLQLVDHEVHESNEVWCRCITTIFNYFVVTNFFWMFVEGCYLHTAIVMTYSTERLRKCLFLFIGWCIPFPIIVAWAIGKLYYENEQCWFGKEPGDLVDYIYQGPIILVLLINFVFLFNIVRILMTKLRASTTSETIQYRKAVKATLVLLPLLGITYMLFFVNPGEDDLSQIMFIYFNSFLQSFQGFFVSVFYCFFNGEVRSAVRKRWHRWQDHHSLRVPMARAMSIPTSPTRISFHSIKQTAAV
UniProt Q13324, 1-397 with tags or gaps: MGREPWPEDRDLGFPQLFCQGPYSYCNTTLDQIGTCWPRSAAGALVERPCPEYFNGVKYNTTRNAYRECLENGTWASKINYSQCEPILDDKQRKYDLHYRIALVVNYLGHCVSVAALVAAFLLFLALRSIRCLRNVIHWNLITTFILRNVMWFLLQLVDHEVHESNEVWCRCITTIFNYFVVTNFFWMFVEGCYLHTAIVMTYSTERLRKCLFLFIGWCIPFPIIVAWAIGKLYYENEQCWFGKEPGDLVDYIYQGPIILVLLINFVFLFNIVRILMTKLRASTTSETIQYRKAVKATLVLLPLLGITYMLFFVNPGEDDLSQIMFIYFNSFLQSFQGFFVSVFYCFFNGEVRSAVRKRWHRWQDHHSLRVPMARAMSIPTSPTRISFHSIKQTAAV
UniProt Q13324, 1-438 with tags or gaps: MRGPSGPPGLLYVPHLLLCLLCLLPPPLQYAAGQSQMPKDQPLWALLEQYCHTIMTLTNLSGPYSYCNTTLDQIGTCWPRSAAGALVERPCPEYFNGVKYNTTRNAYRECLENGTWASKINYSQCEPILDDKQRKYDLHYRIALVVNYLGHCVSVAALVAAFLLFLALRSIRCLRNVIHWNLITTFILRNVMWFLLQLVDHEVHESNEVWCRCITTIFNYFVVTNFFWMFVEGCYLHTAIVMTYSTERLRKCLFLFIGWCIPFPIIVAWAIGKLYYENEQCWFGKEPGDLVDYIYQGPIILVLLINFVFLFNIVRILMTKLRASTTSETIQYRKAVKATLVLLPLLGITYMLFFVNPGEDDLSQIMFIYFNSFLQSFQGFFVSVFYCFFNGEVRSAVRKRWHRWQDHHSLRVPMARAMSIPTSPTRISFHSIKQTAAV
UniProt A0A2K5WPT1, 24-415 limits assumed: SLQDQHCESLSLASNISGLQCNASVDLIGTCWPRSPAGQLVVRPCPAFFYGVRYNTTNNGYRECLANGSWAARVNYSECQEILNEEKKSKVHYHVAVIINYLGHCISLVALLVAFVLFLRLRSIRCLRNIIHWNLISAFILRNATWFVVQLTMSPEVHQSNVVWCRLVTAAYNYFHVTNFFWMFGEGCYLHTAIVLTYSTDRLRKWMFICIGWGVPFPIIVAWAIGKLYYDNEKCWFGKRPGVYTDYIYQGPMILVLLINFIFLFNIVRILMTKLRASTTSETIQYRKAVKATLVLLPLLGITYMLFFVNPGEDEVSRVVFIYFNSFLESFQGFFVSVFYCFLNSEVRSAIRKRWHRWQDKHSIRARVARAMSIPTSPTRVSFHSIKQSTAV
UniProt P35353, 24-415 limits assumed: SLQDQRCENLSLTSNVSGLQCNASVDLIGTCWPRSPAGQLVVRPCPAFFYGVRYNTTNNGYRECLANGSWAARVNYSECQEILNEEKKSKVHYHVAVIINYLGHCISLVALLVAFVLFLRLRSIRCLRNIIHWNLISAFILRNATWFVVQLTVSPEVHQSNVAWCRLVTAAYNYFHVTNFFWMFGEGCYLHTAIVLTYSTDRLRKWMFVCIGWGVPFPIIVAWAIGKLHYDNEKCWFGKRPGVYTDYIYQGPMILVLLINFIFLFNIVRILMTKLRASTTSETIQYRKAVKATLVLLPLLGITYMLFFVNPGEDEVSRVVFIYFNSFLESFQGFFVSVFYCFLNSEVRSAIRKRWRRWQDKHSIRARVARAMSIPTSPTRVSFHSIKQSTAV
UniProt A0A8I3PHA9, 24-415 limits assumed: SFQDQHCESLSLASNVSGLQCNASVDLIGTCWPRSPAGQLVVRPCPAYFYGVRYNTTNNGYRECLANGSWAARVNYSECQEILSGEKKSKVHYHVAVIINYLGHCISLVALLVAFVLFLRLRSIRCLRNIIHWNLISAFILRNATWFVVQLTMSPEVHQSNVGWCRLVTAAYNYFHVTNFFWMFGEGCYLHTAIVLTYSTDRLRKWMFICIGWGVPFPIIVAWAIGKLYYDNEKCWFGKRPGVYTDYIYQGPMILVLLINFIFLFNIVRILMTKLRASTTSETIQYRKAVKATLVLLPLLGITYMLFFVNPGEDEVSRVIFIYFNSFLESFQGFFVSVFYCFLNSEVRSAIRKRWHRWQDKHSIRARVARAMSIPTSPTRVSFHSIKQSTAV
UniProt P34998, 24-415 limits assumed: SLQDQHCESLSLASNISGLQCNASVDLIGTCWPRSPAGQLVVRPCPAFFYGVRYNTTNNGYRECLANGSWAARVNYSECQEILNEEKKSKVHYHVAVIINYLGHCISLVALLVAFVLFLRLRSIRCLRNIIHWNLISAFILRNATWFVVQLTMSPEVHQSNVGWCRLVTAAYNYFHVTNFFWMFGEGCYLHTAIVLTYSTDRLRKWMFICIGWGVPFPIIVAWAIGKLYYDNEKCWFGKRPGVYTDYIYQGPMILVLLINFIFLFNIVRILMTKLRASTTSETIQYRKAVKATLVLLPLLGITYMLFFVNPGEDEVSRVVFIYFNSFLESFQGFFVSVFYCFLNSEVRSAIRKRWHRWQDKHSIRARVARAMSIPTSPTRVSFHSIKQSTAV

What was measured:
[1] = Peptide pharmacokinetics, monkey study (IV and SC); details: cynomolgus monkey
Procedure: Pharmacokinetics of the test peptides were evaluated in vivo as described herein. Male Sprague Dawley rats (300-450 g), male Beagle dogs (5-10 kg) and male cynomolgus monkeys (2-4 kg) were used in the pharmacokinetics (PK) study. All animal procedures were approved by the Institutional Animal Care and Use Committee at the Test Facility.
For IV dosing, compounds were administered by intravenous bolus injection into one of the two peripheral tail veins, at 0.1 mg/kg or 0.3 mg/kg in 0.01M phosphate (pH 7.4, 1 mg/mL). Following dosing, the catheter was flushed with 3 mL of saline prior to removal. For SC dosing, compounds were administered at the intra-scapular skin, at 0.3 mg/kg or 0.9 mg/kg in 0.01M phosphate (pH 7.4, 5 mg/mL). The SC injection site was prepared by clipping away the hair and cleaning with alcohol. After administration, the site was marked with a circle approximately 5cm in diameter.
Blood samples were collected into tubes with K2EDTA. Tubes were stored on wet ice until processed to plasma by centrifugation (2,200 x g at nominal 4°C for 10 minutes) within 60 minutes of collection. Plasma samples were transferred into individual uniquely labeled matrix tubes and stored at nominal -80°C until analysis by liquid chromatography tandem-mass spectrometry (LC-MS/MS).
The plasma samples were prepared by solid phase extraction (SPE) using a Waters PRiME HLB Microelution plate. The SPE plate was conditioned using water:methanol (50:50, v/v) and 0.5% tween 80 in water. After pretreated samples were loaded, wells were washed with 5% methanol in water and 0.1% TFA in water:acetonitrile (80:20, v/v). Wells were eluted with 0.1% formic acid, 0.5% 2,2,2-trifluoroethanol in water:acetonitrile (20:80, v/v) followed by a dilution with 0.1% formic acid, 0.1% tween 80 in water for analysis by LC-MS/MS. The analyte and internal standard (IS) were separated by reversed-phase chromatography using a Shimadzu Nexera X2 UHPLC system and Phenomenex bioZen Peptide PS-C18 50x2.1-mm, 3µm column. The analyte and IS were detected using an Applied Biosystems Sciex API 6500 triple quadrupole mass spectrometer. The mass spectrometer was equipped with an electrospray ionization source operated in the positive-ion mode. The analyte and internal standard were monitored in the multiple-reaction-monitoring scan mode.
Noncompartmental pharmacokinetic parameters were calculated using Phoenix® WinNonlin® software (Version 8.3; Linear Up Log Down Interpolation Calculation Method; Certara L.P.).

canine CRF-R2 beta = canine CRF-R2 beta (Canis lupus familiaris, UniProt A0A8I3PB95); assay: cAMP assay in transfected CHO-K1 cells; details: read-out: CRFR2β (IC50 nM); Dog; mean of 3 data points (n=3)
Procedure: (§1) cAMP was determined utilizing a DiscoverX HitHunter assay Enzyme Fragment Complementation (EF) technology purchased from Eurofins as described in the manufacturing instructions with some adjustments. IC50's were calculated from antagonist dose response curves utilizing interpolated cAMP levels and/or relative light unit (RLU) data. In addition, eXpress assay ready cAMP kits were also utilized with hCRF-R1 and hCRF-R2 division arrested cells according to the manufacturing instructions. Briefly, antagonist dilutions were prepared in assay buffer: Gibco Hank's Buffered Salt Solution (Gibco 30-410, HBSS) supplemented with + 10 mM HEPES Buffer (Gibco 15630-080), containing 6X Tween-20 (Gibco BP337-100; final concentration in wells 0.01%). After removal of the culture media in cells, assay buffer (30 µl) was added to each of the wells on the plate utilizing a multichannel pipettor (INTEGRA VIAFLO 300 µl). The various antagonist dilutions (7.5 µl) at 6X concentration were added to the wells according to the assay protocol plate map and the plate was incubated for 30 min at 37°C. To compare the effects of albumin on the antagonist IC50, assays were also performed by diluting the compounds as described above in assay buffer containing 0.1% [w:v] bovine serum albumin (BSA) or no BSA (Bovine Albumin Fraction V, Fatty Acid Free: MP Biomedicals, Cat. 152401, Lot. S8210). Immediately thereafter, 7.5 µl (6X) of agonist (hCRF for hCRF-R1, hUCN1 for hCRF-R2) was added at a final concentration of 1 nM/well; approximately EC80) followed by a further incubation for 30 min at 37°C. Following the incubation of the antagonists and agonists, 15 µl of Eurofins HitHunter cAMP antibody solution and 60 µl of the Working Detection Solution were added followed by a 1 h incubation at room temperature in the dark. Finally, 60 µl of cAMP Solution A was added followed by a further incubation overnight (approx. 18 h). The total final reaction volume was 180 µl/well. The resulting chemiluminescent signal was measured in a Tecan Spark luminometer.
(§2) For transient transfections, plasmid constructs were supplied by GenScript for rat, cynomolgus monkey, and canine CRF-R1 alpha, and CRF-R2 beta subtypes, as well as human CRF-R1 alpha and CRF-R2 alpha, beta and gamma subtypes all cloned into a pCDNA3.1 (Neo^R) vector. Briefly, Chinese hamster ovary strain K1 (CHO-K1) parental cells were expanded from a liquid nitrogen-stored working bank vial (1.0E+6 cells) by thawing at 37°C for 60 seconds, followed by expansion in 30 ml CHO-K1 Complete Media in a T-225 flask. Cells were passaged at least once by aspirating-out used culture media and washing adherent cells once in phosphate buffered saline without divalent cations (Intermountain BSS-PBS-1X6), followed by dislodging the adherent cells using Enzyme-free cell dissociation buffer (EFDB, Millipore Sigma C5789) and subsequent continued culture in complete media.
(§3) On Day 0, CHO-K1 parental cells were harvested when ~ 90% confluent, seeded into 6-well plates (Costar 3516) at approximately 400,000 cells/well, and cultured overnight in complete media. On Day +1 the cells were monitored for optimal confluence (60-75%), health, cell distribution and morphology, and the media was changed by aspiration with the addition of 2mL fresh complete media. Lipid:DNA complexes were prepared by either: (i) mixing 2.5 µg of plasmid DNA into 500 µl OptiMEM reduced serum media (Gibco Cat# 31985062) together with 9 µl of Lipofecamine LTX (Invitrogen™ Cat# 15338100) followed by incubation for 25 minutes at room temperature; or (ii) mixing 2.0 µg of plasmid DNA into 82 µl OptiMEM with 16 µl of FuGENE 6 (Promega Cat# E2691), at a 4:1 lipid:pDNA volume ratio, followed by incubation for 45 minutes at room temperature. Lipid:DNA complexes were subsequently added dropwise directly onto cells on the 6-well plate. […]

rat CRF-R2 beta = rat CRF-R2 beta (Rattus norvegicus, UniProt P47866); assay: cAMP assay in transfected CHO-K1 cells; details: read-out: CRFR2β (IC50 nM), mean of 3 data points (n=3)
Procedure: as §1, §2, §3

[2] = target: cynomolgus monkey CRF-R2 beta (Macaca fascicularis, UniProt A0A2K5WS31); assay: cAMP assay in transfected CHO-K1 cells; details: read-out: CRFR2β (IC50 nM); Cyno; mean of 3 data points (n=3)
Procedure: as §1, §2, §3

human CRF-R2 gamma = human CRF-R2 gamma (Homo sapiens, UniProt Q13324); assay: cAMP assay in transfected CHO-K1 cells; details: read-out: CRFR2γ (IC50 nM), mean of 3 data points (n=3)
Procedure: as §1, §2, §3

[3] = target: cynomolgus monkey CRF-R1 alpha (Macaca fascicularis, UniProt A0A2K5WPT1); assay: cAMP assay in transfected CHO-K1 cells; details: read-out: CRFR1 (IC50 nM); Cyno; mean of 3 data points (n=3)
Procedure: as §1, §2, §3

human CRF-R2 beta = human CRF-R2 beta (Homo sapiens, UniProt Q13324); assay: cAMP assay in transfected CHO-K1 cells; details: read-out: CRFR2β (IC50 nM); Human; mean of 3 data points (n=3)
Procedure: as §1, §2, §3

human CRF-R2 alpha = human CRF-R2 alpha (Homo sapiens, UniProt Q13324); assay: cAMP assay in transfected CHO-K1 cells; details: read-out: CRFR2α (IC50 nM); Human; mean of 3 data points (n=3)
Procedure: as §1, §2, §3

rat CRF-R1 alpha = rat CRF-R1 alpha (Rattus norvegicus, UniProt P35353); assay: cAMP assay in transfected CHO-K1 cells; details: read-out: CRFR1 (IC50 nM), mean of 3 data points (n=3)
Procedure: as §1, §2, §3

canine CRF-R1 alpha = canine CRF-R1 alpha (Canis lupus familiaris, UniProt A0A8I3PHA9); assay: cAMP assay in transfected CHO-K1 cells; details: read-out: CRFR1 (IC50 nM); Dog; mean of 3 data points (n=3)
Procedure: as §1, §2, §3

human CRF-R1 alpha = human CRF-R1 alpha (Homo sapiens, UniProt P34998); assay: cAMP assay in transfected CHO-K1 cells; details: read-out: CRFR1 (IC50 nM); Human; mean of 3 data points (n=3)
Procedure: as §1, §2, §3

## Ac-Asp-Leu-Thr-D-Phe-His-Leu-Leu-Arg-Glu-Val-Leu-Glu-Nle-K*-Gln-Glu-Glu-Gln-cVal-Ala-Gln-E#-Ala-Glu-K#-Asn-Arg-Lys-Leu-Nle-Glu-cVal-Ala-CONH2
[1]; intravenously 0.3 mg/kg
  IV half-life (IV t1/2): 34.9 h
  clearance (IV CL): 1.5 mL/h/kg
  volume of distribution (IV Vd): 0.066 L/kg
[1]; subcutaneously 0.9 mg/kg
  administered SC dose that reaches systemic circulation (F): 100%
  concentration of peptide in blood plasma (AUC): 626 µg·h/mL
  time to reach peak plasma concentration (Tmax): 5.3 h
  time to reduce the concentration to half its initial value (t1/2): 33.5 h
Canine CRF-R2 beta
  IC50: 32 nM
Rat CRF-R2 beta
  IC50: 48 nM
[2]
  IC50: 28 nM
Human CRF-R2 gamma
  IC50: 1.6 nM
[3]
  IC50: 1 nM
Human CRF-R2 beta
  IC50: 36 nM
Human CRF-R2 alpha
  IC50: 406 nM
Rat CRF-R1 alpha
  IC50: 0.85 nM
Canine CRF-R1 alpha
  IC50: 1.3 nM
Human CRF-R1 alpha
  IC50: 0.74 nM
